Protein sequences, listed by entry. Tags and fused reporters are not part of them.
Importin subunit beta-1 (Homo sapiens), Q14974, UniProt Q14974, whole entry, looked up: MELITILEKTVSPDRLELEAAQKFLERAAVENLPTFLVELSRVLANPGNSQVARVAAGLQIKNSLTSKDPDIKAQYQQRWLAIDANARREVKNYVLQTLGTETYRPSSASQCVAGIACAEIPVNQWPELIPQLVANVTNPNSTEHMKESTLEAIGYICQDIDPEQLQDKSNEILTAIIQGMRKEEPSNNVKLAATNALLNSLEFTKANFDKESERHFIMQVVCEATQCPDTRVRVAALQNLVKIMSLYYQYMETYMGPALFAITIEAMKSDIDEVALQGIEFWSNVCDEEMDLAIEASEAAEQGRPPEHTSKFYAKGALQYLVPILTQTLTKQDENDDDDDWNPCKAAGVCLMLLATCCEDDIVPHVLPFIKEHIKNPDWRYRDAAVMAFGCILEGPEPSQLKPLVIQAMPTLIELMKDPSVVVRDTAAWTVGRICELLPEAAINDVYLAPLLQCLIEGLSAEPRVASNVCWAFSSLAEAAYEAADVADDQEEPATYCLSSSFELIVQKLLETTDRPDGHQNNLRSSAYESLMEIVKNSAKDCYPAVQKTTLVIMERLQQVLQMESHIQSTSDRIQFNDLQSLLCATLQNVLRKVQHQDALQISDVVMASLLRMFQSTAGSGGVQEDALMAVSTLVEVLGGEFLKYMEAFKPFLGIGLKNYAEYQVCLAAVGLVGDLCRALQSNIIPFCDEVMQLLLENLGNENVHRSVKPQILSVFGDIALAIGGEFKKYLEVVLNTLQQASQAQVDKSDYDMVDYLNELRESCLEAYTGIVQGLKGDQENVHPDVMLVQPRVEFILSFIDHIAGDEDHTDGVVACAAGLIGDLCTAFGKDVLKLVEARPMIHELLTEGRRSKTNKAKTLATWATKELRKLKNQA

# PTAP TSG101 blk – qHTS Assay for Iinhibitors of HIV-1 Budding by Blocking the Interaction of PTAP/TSG101; AID 493005, 2010; Potency, µM (series often up to 115 µM), without a hit: top-dose activity change, negative = inhibition, most hits filed as inhibitors; 340,000 tested, under 10 active; Fluorescence polarization, FITC-PTAP peptide / Tsg101 binding; Tumor susceptibility gene 101 protein (Homo sapiens), Q99816; active means well fitted inhibition curve with a large enough effect in the main read-out, with a control signal flat, not every such curve was filed as active; inconclusive means small, poorly fitted or top-dose-only effect, or effect the other way, or a change in a side signal; inactive means no such curve, though single readings can be large or run the other way; further: % of control where 0% means no effect
#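 Fluorescence polarization binding of Tsg101 binding domain (10 uM final) to FITC-labeled PTAP peptide (50 nM final) in HEPES pH 7.5 buffer with NaCl, Tween 20, EDTA, TCEP. Compounds added before peptide; binding 20 min at RT.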
# ClpP mod – qHTS Assay for Activators of ClpP; ATP-dependent Clp protease proteolytic subunit (Bacillus subtilis (strain 168)), P80244; purified B. subtilis ClpP, FRET peptide cleavage, 20 min; Potency, µM (top dose mostly 57.5 µM), inactives show at the top dose activity change, negative = active; 1.9% of 340,000 active; AID 651965, 2013; active means well fitted falling curve with a large enough effect; inconclusive means small, poorly fitted or top-dose-only effect; inactive means no such curve, though single readings can be large or run the other way; further: the source files actives as falling curves though it sought activators and does not explain the sign; nearly all actives have a fitted effect of over 65% in size
#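 Buffer: 100 mM Tris/HCl pH8, 100 mM KCl, 0.05% low protease BSA, 2.5% glycerol, 0.01% Tween-20. ClpP 10 microg/mL final; 20 min RT; delta FRET normalized to ADEP and DMSO controls.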
# Rango-impB inh – qHTS Assay for Inhibitors of Rango (Ran-regulated importin-beta cargo) - Importin beta complex formation. Rango CFP/YFP FRET sensor + importin beta, 45 min. AID 540263, 2011. Potency, µM (doses to about 92.2 µM), without a hit: at the highest dose inhibition of complex formation. Importin subunit beta-1 (Homo sapiens), Q14974. 0.031% of 340,000 active;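 further: 0% = DMSO wells and 100% = buffer wells lacking importin beta; nearly all actives have a fitted effect of over 15% in size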
#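 Inhibition scored from the CFP 486 nm/YFP 530 nm FRET ratio 45 min after adding 0.125 microM importin beta to 50 nM Rango biosensor preincubated 5 min with compound (room temperature, PBS with DTT, Tween-20, BSA). No-importin wells as positive control.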
# Rango release inh – qHTS Assay for Inhibitors of RanGTP induced Rango (Ran-regulated importin-beta cargo) - Importin beta complex dissociation; Snurportin-1 (Homo sapiens) + GTP-binding nuclear protein Ran (Homo sapiens) + Importin …; Biochemical FRET Rango-importin beta, RanGTP-induced dissociation; Potency, µM (titrated, usually from 46.1 µM), without a hit: top-dose activity change, negative = inhibition; 0.071% of 340,000 active; AID 540253, 2011; further: % of control where 0% means no effect; nearly all actives have a fitted effect of over 45% in size
#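 Rango (0.1 uM)–importin beta (0.25 uM) complex; RanGTP-RCC1 trigger; 45 min RT; CFP/YFP FRET read.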
# TDP1 inh – qHTS Assay for Inhibitors of Tyrosyl-DNA Phosphodiesterase (TDP1); 0.28% of 350,000 active; Potency, µM (doses to about 130 µM), for inactives: at the top dose activity change, negative = inhibition, actives largely listed as inhibitors; AID 485290, 2010; recombinant TDP1, AlphaScreen DNA substrate cleavage; active means well fitted curve in the direction sought with a large enough effect; inconclusive means small, poorly fitted or top-dose-only effect, or another doubt; inactive means no such curve, though single readings can be large; an effect the other way counts as inactive or inconclusive; further: on the % scale 0 is the no-effect control and ±100 the full control effect; nearly all actives have a fitted effect of over 40% in size
#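 Here, a 5' biotin and 3' phosphotyrosine-FITC DNA oligonucleotide reports Tdp1 activity: intact substrate bridges AlphaScreen beads, while cleavage leaves a 3' phosphate and drops signal. All incubations at room temperature.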
# 12-LOX inh – Primary qHTS assay for inhibitors of human arachidonate 12S-lipoxygenase (ALOX12): Round 2 | purified 12hLO, xylenol orange hydroperoxide absorbance | Polyunsaturated fatty acid lipoxygenase ALOX12 (Homo sapiens), P18054 | Potency, µM (series often up to 108 µM), for inactives: top-dose activity change, negative = inhibition, hits mostly inhibitors | 1.1% of 580,000 active; active means well fitted curve in the direction sought with a large enough effect; inconclusive means small, poorly fitted or top-dose-only effect, or another doubt; inactive means no such curve, though single readings can be large; an effect the other way counts as inactive or inconclusive; further: on the % scale 0 is the no-effect control and ±100 the full control effect
#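 Purified human 12hLO at 150 nM in 25 mM Hepes, 0.01% Triton X-100, pH 7.0, preincubated 15 min at room temperature with compound. Reaction started with 40 uM arachidonic acid, 30 min at room temperature. Hydroperoxide measured by Fe-xylenol orange, 573/405 nm absorbance ratio.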
# The depositor's hits bear a star; ? = inconclusive; . = no result; [ ] = remark or other dose. Only some compounds are listed: those with a hit (about 2.4% of all), similar ones and a draw of the others. Unless noted, the call rests on the fitted dose curve. Potency means the concentration at half of the fitted maximal effect.
item | SMILES | PTAP TSG101 blk | ClpP mod | Rango-impB inh | Rango release inh | TDP1 inh | 12-LOX inh
1 | O=C(Cc1ccc(F)cc1)N1CCn2c(nnc2-c2ccccc2)C1 | . | . | . | . | . | 16%[176 µM]
2 | Cc1ccc(-c2csc(/C=C/c3cccc(O)c3)n2)cc1 | . | . | . | . | . | 7.1µM*
3 | COc1ccc(F)c(CN2CCC3(CCC(=O)N(CCO)C3)CC2)c1 | . | . | . | . | . | 34%
4 | CCc1nccn1CCNC(=O)C1CCN(C(=O)C2CCC2)CC1 | . | . | . | . | . | 29%
5 | C(=C\c1ccccn1)/c1ccccc1 | . | -5% | . | . | . | ?
6 | Cc1cccc(/C=C\c2ccccc2)n1 | . | . | . | . | 4%[56.1 µM] | 245%
7 | C(=C\c1cc(/C=C/c2ccccc2)ncn1)/c1ccccc1 | -1% | 35µM* | -2% | -2% | 4% | -4%
8 | Cc1nc(/C=C/c2ccccc2)cc(/C=C/c2ccccc2)n1 | -6% | 14µM* | 0% | 17% | -3% | 0%
9 | COC(=O)C(=O)/C=C(\O)c1c(C)cc(C)cc1C | -4% | . | 65µM* | 7% | . | 111%
10 | Cc1nonc1OCCNCCNc1ccc([N+](=O)[O-])cc1Cl | -2% | . | 2% | 2% | 2% | -17%
11 | O=[N+]([O-])c1ccc(NCCNCCOc2nonc2-c2ccccc2)c([N+](=O)[O-])c1 | -1% | 16µM* | 5% | 22% | 9% | -1%
12 | Cc1cccc(Nc2nc(C#N)nc(NC3CCCC3)n2)c1 | . | . | . | . | -5% | .

# From no. 1 to 2, as listed above:
item | SMILES | PTAP TSG101 blk | ClpP mod | Rango-impB inh | Rango release inh | TDP1 inh | 12-LOX inh
1 | O=C(Cc1ccc(F)cc1)N1CCn2c(nnc2-c2ccccc2)C1 | . | . | . | . | . | 16%[176 µM]
2 | Cc1ccc(-c2csc(/C=C/c3cccc(O)c3)n2)cc1 | . | . | . | . | . | 7.1µM*

# Structures listed so far with fluorine:
item | SMILES | PTAP TSG101 blk | ClpP mod | Rango-impB inh | Rango release inh | TDP1 inh | 12-LOX inh
1 | O=C(Cc1ccc(F)cc1)N1CCn2c(nnc2-c2ccccc2)C1 | . | . | . | . | . | 16%[176 µM]
3 | COc1ccc(F)c(CN2CCC3(CCC(=O)N(CCO)C3)CC2)c1 | . | . | . | . | . | 34%

# Continued:
item | SMILES | PTAP TSG101 blk | ClpP mod | Rango-impB inh | Rango release inh | TDP1 inh | 12-LOX inh
13 | CC(=O)N1CCN(Cc2ccc(-c3cnc4c(OCc5ccccc5)nccn34)cc2)CC1 | . | . | . | . | . | 26%
14 | CC(=O)Nc1nc(-c2ccc3c(c2)CCN3S(C)(=O)=O)cs1 | 0% | . | 0% | -13% | 7% | -16%
15 | Cc1cccc(Nc2nc(-c3ccc4c(c3)CCN4S(C)(=O)=O)cs2)c1 | . | . | . | . | . | 35µM*
16 | O=C(CCc1ccccc1)N1N=C(c2ccccc2)CC1c1ccc2nccnc2c1 (stereo not drawn) | . | . | . | . | . | -8%
17 | COCC(=O)NC1CCC12CCN(C(=O)NC(C)C)CC2 (stereo not drawn) | . | . | . | . | . | 32%
18 | Cc1cccc(NC(=S)NCC2(C)CCCC3(C)c4ccc(C(C)C)cc4CCC23)c1 (stereo not drawn) | . | . | . | . | . | 16µM*
19 | COc1ccc(/C=N/NC(=O)Cn2cnc3c2c(=O)n(C)c(=O)n3C)c(OC)c1OC | -2% | -3% | 0% | 15% | . | 0%
20 | Cn1c(=O)c2c(ncn2CC(=O)N/N=C/c2c[nH]c3ccccc23)n(C)c1=O | . | . | . | . | 79µM* | .
21 | CCC(c1nnc(SCC(=O)Nc2cccc(S(N)(=O)=O)c2)n1Cc1ccccc1)N(C)C (stereo not drawn) | 1% | 0% | 8% | 18% | 1% | -6%
22 | CCC(c1nnc(SCC(=O)Nc2cc(S(C)(=O)=O)ccc2Cl)n1Cc1ccccc1)N(C)C (stereo not drawn) | 3% | 32µM* | 0% | -1% | 5% | 12%
23 | Oc1ccc(C2CCN(c3ccnc4ccccc34)CC2)cc1O | . | . | . | . | . | 3.1µM*
24 | O=C(C1CC1)N1CCN(c2ccnc3cc(Cl)ccc23)CC1 | 0% | 3% | -1% | -2% | 0% | 0%
25 | Cc1[nH]c(=O)nc(SCc2cccc(Cl)c2)c1C#N | 1% | . | ? | -27% | 4% | ?
26 | N#Cc1c(-c2ccccc2)nc(SCc2cccc(Cl)c2)[nH]c1=O | -2% | -2% | -3% | 12% | . | 40µM*

# High-throughput results from PubChem.
